## scFv variants of Ab-14 (heavy chain) against a SARS-CoV-2 spike peptide

Values reported by Engelhart et al. 2022, doi:10.1038/s41597-022-01779-4 (FLAb copy).

All variants were tested on one target, the spike HR2 peptide PDVDLGDISGINAS (SARS-CoV-2).

Each scFv is VH, three GGGGS repeats, VL, as in the parent Ab-14, and differs from it in the CDRs of the heavy chain only.
VH: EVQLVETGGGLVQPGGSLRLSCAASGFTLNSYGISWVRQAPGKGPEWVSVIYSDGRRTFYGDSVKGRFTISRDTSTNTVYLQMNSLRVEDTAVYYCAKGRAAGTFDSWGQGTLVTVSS
VL: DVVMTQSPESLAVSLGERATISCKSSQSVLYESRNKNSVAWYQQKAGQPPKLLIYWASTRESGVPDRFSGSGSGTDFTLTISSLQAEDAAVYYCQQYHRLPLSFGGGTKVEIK

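Phage display of a naive human antibody library on the peptide gave the parent. AAYL49 was designed without a model: most single CDR substitutions and a random sample of double and triple ones. AlphaSeq pools MATa yeast showing the antibodies with MATalpha yeast showing the peptide. The frequency of each diploid, read from paired DNA barcodes, reflects how well the two displayed proteins bind. Read counts were normalised to the haploid input and turned into Kd by a linear fit to BCL2-family pairs of known affinity, for each replicate. Mating was done three times.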

Variants are written as CDR1, CDR2 and CDR3 of the heavy chain (limits as in the source). Parent: GFTLNSYGIS, VIYSDGRRTFYGDSVK, GRAAGTFDS. The read-out is the apparent dissociation constant on a log10 scale (nM): the lower, the stronger. The mean shown is taken over the replicates in which the pair was detected. An entry "ND" has no value in the source: the pair was not observed among the diploids in that replicate. This suggests poor binding but is not conclusive. As a blank, each scFv also met three strains without target: over library AAYL49, 15% of these pairings were detected, typically at 4.06 and seldom below 2.83. For each scFv, signals with the empty controls are counted beside the result, with their mean in brackets.

| # | CDR-H1 | CDR-H2 | CDR-H3 | replicates, log10 nM | mean, log10 nM | empty controls |
|---|---|---|---|---|---|---|
| 1 | GFTLNSYGIS | VIYSDGRATFYGDSVQ | GRAAKTFDS | ND / ND / ND | ND | 1/9 (4.63) |
| 2 | GFTLNSTGIS | VIYSDGRQTFYGDSDK | GRAAGTFDS | ND / 3.55 / 4.70 | 4.13 | 4/9 (4.64) |
| 3 | GFRLNSYGIS | VIYYDGRRTFYGDSVF | GRAAGTFDS | 2.98 / ND / ND | 2.98 | 1/9 (3.30) |
| 4 | GFTLMSYGIS | VIYSDGTRTFYGDSVK | GRKAGTFDS | 3.60 / 2.70 / 5.39 | 3.90 | 3/9 (3.85) |
| 5 | GQTLNSYGVS | VIYSDGRRTFYGDSVK | GRAAGKFDS | ND / ND / ND | ND | 0/9 |
| 6 | GFTSNSYGIS | VIYSDGRRTGYGDSVK | GRAAGTFDS | 3.03 / 2.02 / 2.67 | 2.57 | 0/9 |
| 7 | GFTLNLYGIS | VIRSDGRRTFYGDSVK | GRVAGTFDS | ND / ND / 4.46 | 4.46 | 1/9 (3.22) |
| 8 | GFILNSYPIS | VIYSDGRRTFYGDSVK | IRAAGTFDS | ND / ND / ND | ND | 1/9 (3.90) |
| 9 | GLTLNSYGIS | VINSDGRRTFYGDTVK | GRAAGTFDS | ND / ND / ND | ND | 0/9 |
| 10 | GFTLNSYGIS | VIYSDGRRTFYGDSVK | GWAAGTFDS | 0.49 / 0.71 / 0.63 | 0.61 | 4/9 (4.98) |
| 11 | GFTLASYGIS | VIYTDGRRTFYGDSWK | GRAAGTFDS | ND / ND / ND | ND | 0/9 |
| 12 | GFTLNSYGIS | VIYSPGRRTFYGDTVK | GVAAGTFDS | ND / ND / ND | ND | 2/9 (4.76) |
| 13 | NFTLNSYGIS | VIYSDGRRTPYGDSVQ | GRAAGTFDS | 5.76 / 4.66 / ND | 5.21 | 4/9 (3.59) |
| 14 | GFTLNSYGIS | VIYSDQREQFYGDSVK | GRAAGTFDS | ND / ND / ND | ND | 3/9 (4.35) |
| 15 | GFTLNSYGIS | VIYQDGRRTFYGDGVK | GRAAGTFSS | ND / ND / 4.22 | 4.22 | 1/9 (3.46) |
| 16 | GFTLWSYGIS | VIYSDGRRTFYGDQDK | GRAAGTFDS | ND / 3.20 / ND | 3.20 | 0/9 |
| 17 | GDSLNSYGIS | VIYSDGRRTFYGDSVK | GRASGTFDS | ND / ND / ND | ND | 1/9 (2.63) |
| 18 | GFTLNSYCIS | VIYSDGRRTFYGDSAK | GRAAGTFDV | 4.87 / ND / ND | 4.87 | 2/9 (4.45) |
| 19 | GTTLNSYNIS | VIYSDGRRTFYNDSVK | GRAAGTFDS | ND / ND / ND | ND | 0/9 |
| 20 | GFTLNSEGIP | VIYSDGRRTFIGDSVK | GRAAGTFDS | ND / ND / ND | ND | 0/9 |
| 21 | IFTLNIYGIS | VIYSDGRRTFYGDSVK | GRAAGTFDT | 3.62 / 2.43 / 2.87 | 2.98 | 4/9 (4.13) |
| 22 | GFTLHSYGIS | QIYADGRRTFYGDSVK | GRAAGTFDS | 3.62 / ND / ND | 3.62 | 0/9 |
| 23 | GFTLNSYGIS | VIYSDGRRTFYGNSVK | GRAAGTFDS | 0.80 / 1.14 / 1.23 | 1.06 | 1/9 (2.73) |
| 24 | GFTLNSYGIS | PIYSDGRRTFYGDVVK | GRAAGLFDS | ND / ND / ND | ND | 2/9 (3.70) |
| 25 | GFTLNSYGRS | VIYSDGRRFFYGDSVK | ERAAGTFDS | ND / ND / ND | ND | 0/9 |
| 26 | GFTLNSYGIS | VIWSDGRRTFYQCSVK | GRAAGTFDS | 5.90 / ND / ND | 5.90 | 4/9 (4.23) |
| 27 | GFTLNSYGIS | VIYSDGRRTFYGDEVK | GRAAGTFDS | 1.44 / 1.27 / 1.76 | 1.49 | 0/9 |
| 28 | GFALNSYGIS | VIYSDFRRTFYGDSVK | KRAAGTFDS | ND / ND / ND | ND | 1/9 (3.74) |
| 29 | NFTLNSYGIS | VIYSDGRRTFYGDSVK | GRCAGTFTS | ND / ND / ND | ND | 2/9 (4.09) |
| 30 | GFTLNSYGIS | VIYSDGRRQFYGDSPK | GRAAGTFDS | ND / ND / ND | ND | 1/9 (5.22) |
| 31 | GFTLNSYSIS | VIYSKGRRTFYGDSVK | GREAGTFDS | ND / ND / ND | ND | 1/9 (4.56) |
| 32 | GFTLNSYGYS | QIYSDGRRAFYGDSVK | GRAAGTFDS | ND / ND / 5.45 | 5.45 | 4/9 (3.64) |
| 33 | GLTLNEYGIS | VKYSDGRRTFYGDSVK | GRAAGTFDS | ND / ND / ND | ND | 3/9 (3.96) |
| 34 | GFCLNVYGIS | VIYSDGRRTFYGDSVK | GCAAGTFDS | 3.53 / 3.15 / 3.58 | 3.42 | 2/9 (3.78) |
| 35 | GFTLNSYGIS | VQYSDGRRTFYGDSVP | GRAVGTFDS | ND / 3.95 / ND | 3.95 | 3/9 (4.36) |
| 36 | GFTLNSYGIS | VIYCDGRRTFGGDSVK | GRAAGSFDS | ND / 3.99 / ND | 3.99 | 1/9 (4.84) |
| 37 | GFTLNSYGIS | MIYSDGRRTFYGDSSK | GRAAGTFDS | ND / ND / ND | ND | 1/9 (2.95) |
| 38 | GFHLNSNGIS | VIYKDGRRTFYGDSVK | GRAAGTFDS | ND / ND / ND | ND | 1/9 (2.60) |
| 39 | GFTENSYGIS | VVYSDGRRTFYGDSWK | GRAAGTFDS | ND / 3.66 / 3.98 | 3.82 | 4/9 (4.57) |
| 40 | GFTLNSYGIS | VIASDGRRTQYGDSVK | GRAHGTFDS | ND / ND / ND | ND | 1/9 (3.88) |
| 41 | GFTDNSYGIH | VIYSDGRRTFNGDSVK | GRAAGTFDS | ND / ND / ND | ND | 1/9 (4.59) |
| 42 | GDTLNSYGIS | VIYSDGRRTIYGDSVK | GRCAGTFDS | 3.74 / 3.89 / 3.61 | 3.75 | 3/9 (4.19) |

Excerpt, the final 7 entries:

CDR-H1,CDR-H2,CDR-H3,"replicates, log10 nM","mean, log10 nM",empty controls
GFTLNSYGIS,VIYCDGRRTFGGDSVK,GRAAGSFDS,ND / 3.99 / ND,3.99,1/9 (4.84)
GFTLNSYGIS,MIYSDGRRTFYGDSSK,GRAAGTFDS,ND / ND / ND,ND,1/9 (2.95)
GFHLNSNGIS,VIYKDGRRTFYGDSVK,GRAAGTFDS,ND / ND / ND,ND,1/9 (2.60)
GFTENSYGIS,VVYSDGRRTFYGDSWK,GRAAGTFDS,ND / 3.66 / 3.98,3.82,4/9 (4.57)
GFTLNSYGIS,VIASDGRRTQYGDSVK,GRAHGTFDS,ND / ND / ND,ND,1/9 (3.88)
GFTDNSYGIH,VIYSDGRRTFNGDSVK,GRAAGTFDS,ND / ND / ND,ND,1/9 (4.59)
GDTLNSYGIS,VIYSDGRRTIYGDSVK,GRCAGTFDS,3.74 / 3.89 / 3.61,3.75,3/9 (4.19)